Data published in patent publication US11319306B2, “Compositions and methods for treating neurodegenerative diseases” (Azevan Pharmaceuticals, Inc., priority 2014, dated 2022).

The chains behind the UniProt entries cited, without tags or fusion partners.
UniProt P37288, whole entry: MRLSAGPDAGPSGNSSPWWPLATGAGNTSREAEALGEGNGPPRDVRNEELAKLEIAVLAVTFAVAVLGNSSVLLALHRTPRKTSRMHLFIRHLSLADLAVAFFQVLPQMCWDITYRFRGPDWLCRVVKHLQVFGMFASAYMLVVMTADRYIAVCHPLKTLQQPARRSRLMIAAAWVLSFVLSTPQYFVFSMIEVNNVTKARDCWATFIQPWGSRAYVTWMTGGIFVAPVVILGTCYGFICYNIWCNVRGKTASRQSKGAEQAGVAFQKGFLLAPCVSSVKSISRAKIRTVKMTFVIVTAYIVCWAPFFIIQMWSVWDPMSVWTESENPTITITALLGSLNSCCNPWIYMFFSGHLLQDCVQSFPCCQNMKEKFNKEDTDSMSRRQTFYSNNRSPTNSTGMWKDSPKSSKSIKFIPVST

Molecular target: T1, human V1a receptor (Homo sapiens, UniProt P37288)
T1 construct: host or cells: CHO cells (hV1a cell line)
Experiment: Human vasopressin V1a receptor binding assay (3H-AVP competition, hV1a CHO cells)
Details: CHO cells expressing human V1a
Method: Human vasopression V1a receptor binding assay. A cell line expressing the human V1a receptor in CHO cells (henceforth referred to as the hV1a cell line) was obtained from Dr. Michael Brownstein, NIMH, Bethesda, Md., USA. The hV1a cDNA sequence is described by Thibonnier et al., Journal of Biological Chemistry, 269, 3304-3310 (1994), and the expression method was the same as described by Morel et al. (1992). The hV1a cell line was grown in alpha-MEM with 10% fetal bovine serum and 250 ug/ml G418 (Gibco, Grand Island, N.Y., USA). For competitive binding assay, hV1a cells were plated into 6-well culture plate at 1:10 dilution from a confluency flask, and maintained in culture for at least two days. Culture medium was then removed, cells were washed with 2 ml binding buffer (25 mM Hepes, 0.25% BSA, 1×DMEM, PH=7.0). To each well, 990 μl binding buffer containing InM 3H-AVP was added, and followed by 10 μl series diluted Example compounds dissolved in DMSO. […] 100 nM cold AVP (Sigma) was used to assess non-specific binding. Cells were incubated for 45 minutes at 37° C., assay mixture was removed and each well was washed three times with PBS (pH=7.4). 1 ml 2% SDS was added per well and plates were let sit for 30 minutes. […] Samples were counted in a liquid scintillation counter (Beckman LS3801). IC50 values were calculated by Prism Curve fitting software. […]

Ki: 1.13 nM
IC50 (read-out: V1a Binding Affinity IC50): 1.83 nM
SMILES: O=C(NCc1cccc(C(F)(F)F)c1F)C(CC(=O)N1CCC(N2CCCCC2)CC1)N1C(=O)C(N2C(=O)OCC2c2ccccc2)C1C=Cc1ccccc1 [Example 222, 2(R)-[[4-(Piperidinyl)piperidinyl]carbonylmethyl]-2-[3(S)-(4(S)-phenyloxazolidin-2-on-3-yl)-4(R)-(2-styryl)azetidin-2-on-1-yl]acetic acid N-(2-fluoro-3-trifluoromethylbenzyl)carboxamide]
